Molecular target: Sucrase-isomaltase, intestinal (Rattus norvegicus, UniProt P23739)
Assay: Inhibition of sucrase in rat intestinal mucosa pre-incubated for 40 mins using sucrose substrate
Format: tissue-based
Summary of the method: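 Rat intestinal mucosa powder (1.0 g) was suspended in 3 mL 0.9% saline and sonicated at 4 °C (12 × 30 s), then spun at 10000g, 4 °C, 30 min; the supernatant served as enzyme. Compound in DMSO was mixed with substrate (maltose, sucrose or p-nitrophenyl-α-D-glucopyranoside) in 0.1 M phosphate buffer pH 6.9 and preincubated 40 min. Glucose was read by GOD kit at 550 nm, with blank-corrected percent inhibition.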

By UniProt entry, the sequences of proteins in these tests, tags left out. Residues count along the entry.
UniProt P23739, 1014-1841 limits assumed: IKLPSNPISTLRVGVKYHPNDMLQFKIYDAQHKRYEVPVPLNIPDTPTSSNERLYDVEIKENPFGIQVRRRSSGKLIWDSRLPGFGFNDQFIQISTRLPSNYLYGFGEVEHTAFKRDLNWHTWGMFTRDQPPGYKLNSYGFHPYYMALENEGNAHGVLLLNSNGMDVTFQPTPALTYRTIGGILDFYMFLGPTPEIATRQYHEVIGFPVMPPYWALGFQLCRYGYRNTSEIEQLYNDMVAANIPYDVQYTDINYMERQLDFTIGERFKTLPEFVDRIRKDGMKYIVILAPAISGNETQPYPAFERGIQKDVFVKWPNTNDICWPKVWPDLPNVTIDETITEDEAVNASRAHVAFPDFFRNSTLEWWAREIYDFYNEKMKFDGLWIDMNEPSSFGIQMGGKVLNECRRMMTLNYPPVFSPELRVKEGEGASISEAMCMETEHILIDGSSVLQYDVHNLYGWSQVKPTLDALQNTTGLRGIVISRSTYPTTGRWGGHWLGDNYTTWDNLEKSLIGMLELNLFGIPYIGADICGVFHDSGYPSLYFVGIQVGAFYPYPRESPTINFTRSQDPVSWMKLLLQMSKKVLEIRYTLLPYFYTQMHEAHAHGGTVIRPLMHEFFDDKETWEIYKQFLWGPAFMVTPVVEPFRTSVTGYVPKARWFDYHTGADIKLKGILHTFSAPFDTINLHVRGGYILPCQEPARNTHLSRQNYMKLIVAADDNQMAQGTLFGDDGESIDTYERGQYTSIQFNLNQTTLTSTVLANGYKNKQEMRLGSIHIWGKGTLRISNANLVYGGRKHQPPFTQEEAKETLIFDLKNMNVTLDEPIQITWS
UniProt P23739, 1-1013 limits assumed: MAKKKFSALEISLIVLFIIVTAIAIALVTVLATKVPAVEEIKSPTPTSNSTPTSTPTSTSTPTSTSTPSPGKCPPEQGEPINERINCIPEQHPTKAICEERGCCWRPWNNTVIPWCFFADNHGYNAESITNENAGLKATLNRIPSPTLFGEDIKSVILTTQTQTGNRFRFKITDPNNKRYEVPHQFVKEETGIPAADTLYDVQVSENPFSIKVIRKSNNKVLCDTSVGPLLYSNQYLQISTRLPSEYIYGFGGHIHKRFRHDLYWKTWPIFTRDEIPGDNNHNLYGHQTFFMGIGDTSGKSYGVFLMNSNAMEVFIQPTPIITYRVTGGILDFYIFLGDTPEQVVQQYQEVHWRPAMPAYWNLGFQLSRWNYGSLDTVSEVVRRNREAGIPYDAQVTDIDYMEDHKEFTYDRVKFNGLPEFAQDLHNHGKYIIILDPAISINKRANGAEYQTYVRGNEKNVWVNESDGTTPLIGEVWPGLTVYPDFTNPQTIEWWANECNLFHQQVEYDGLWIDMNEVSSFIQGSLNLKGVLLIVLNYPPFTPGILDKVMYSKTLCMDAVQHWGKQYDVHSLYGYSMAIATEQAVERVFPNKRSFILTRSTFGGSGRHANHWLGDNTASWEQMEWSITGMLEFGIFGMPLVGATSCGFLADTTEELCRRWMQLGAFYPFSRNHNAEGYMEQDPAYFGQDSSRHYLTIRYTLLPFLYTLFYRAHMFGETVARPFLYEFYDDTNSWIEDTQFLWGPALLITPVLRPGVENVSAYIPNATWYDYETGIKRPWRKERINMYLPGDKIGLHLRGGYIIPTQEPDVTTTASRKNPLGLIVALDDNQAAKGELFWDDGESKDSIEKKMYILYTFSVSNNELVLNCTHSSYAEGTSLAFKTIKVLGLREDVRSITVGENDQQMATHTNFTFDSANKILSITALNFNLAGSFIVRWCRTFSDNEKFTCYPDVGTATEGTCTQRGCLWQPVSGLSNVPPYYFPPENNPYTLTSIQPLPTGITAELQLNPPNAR

IC50: 20.2 µM
SMILES: C[C@H]1O[C@H](O[C@H]2[C@H](O)[C@@H](O)[C@@H](O[C@H]3[C@H](O)[C@@H](O)C(O)O[C@@H]3CO)O[C@@H]2CO)[C@H](O)[C@@H](O)[C@@H]1N[C@H]1C=C(CO)[C@@H](O)[C@H](O)[C@H]1O (stereo partly specified) [ACARBOSE]

— ChEMBL document CHEMBL3593234, “Lanostane Triterpenes from the Tibetan Medicinal Mushroom Ganoderma leucocontextum and Their Inhibitory Effects on HMG-CoA Reductase and α-Glucosidase” (J Nat Prod, 2015)
